Measured values as given in US11548923B2, “Peptide compositions and methods of use thereof for disrupting TEAD interactions” (Fred Hutchinson Cancer Center, priority 2017, dated 2023).

The chains behind the UniProt entries cited, without tags or fusion partners. Residues count along the entry.
UniProt P28347, 209-426: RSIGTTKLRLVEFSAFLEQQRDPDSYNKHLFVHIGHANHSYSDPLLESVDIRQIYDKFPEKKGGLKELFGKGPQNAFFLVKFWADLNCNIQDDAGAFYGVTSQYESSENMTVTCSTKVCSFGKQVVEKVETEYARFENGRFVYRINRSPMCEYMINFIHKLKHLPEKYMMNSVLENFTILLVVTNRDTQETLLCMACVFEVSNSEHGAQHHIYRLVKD

How the values were obtained:
[1] = molecular target: T1, biotinylated TEAD (Homo sapiens, UniProt P28347); assay: Surface plasmon resonance (SPR) binding of soluble peptides to captured biotinylated TEAD; conditions: biotinylated TEAD immobilized on an SPR chip, read-out: dissociation constant (KD)
T1 construct: soluble TEAD (194-411) was produced with two C-terminal tags; GST; made in house; host or cells: Hi5 insect cells (baculovirus, BacMagic, pIEX-BAC3)

[2] = Peptide stability in reducing conditions (HPLC); type: physicochemical
[3] = Circular dichroism thermal stability; type: physicochemical; conditions: heating from 20° C. to 95° C.
Experimental: Circular Dichroism. Protein secondary structures can be assessed using Circular Dichroism (CD). CD spectra can be measured with a Jasco J-720W spectropolarimeter using a 1.0 mm path length cell. Protein samples in 10 mM phosphate buffer (pH=7.4) can be at 25-30 uM protein concentration. Samples can be analyzed at wavelength ranges of 260-190 nM. Data can be expressed in terms of relative ellipticity [θ]; (mdeg). To determine thermal stability of proteins, samples can be subjected to incremental increase in temperature at a ramp of 2° C./min from 20° C. to 95° C. […] Data can be expressed in terms of relative ellipticity [θ], reported in mdeg.
(§1) Protein secondary structures were assessed using Circular Dichroism (CD). CD spectra were measured with a Jasco J-720W spectropolarimeter using a 1.0 mm path length cell. Protein samples in 10 mM phosphate buffer (pH=7.4) were at 25-30 μM protein concentration. Samples were analyzed at wavelength ranges of 260-190 nM. Data were expressed in terms of relative ellipticity; (mdeg). To determine thermal stability of proteins, samples were subjected to incremental increase in temperature at a ramp of 2° C./min from 20° C. to 95° C. […] Data are expressed in terms of relative ellipticity, reported in mdeg. For SEQ ID NO: 9 and its point mutant variants, no changes to the α-helix-dominated structure were observed upon heating up to 95° C. […] Additionally, protein melting temperature (Tm) determination was performed by monitoring protein unfolding using SYPRO Orange dye (Molecular Probes). In brief, 0.1 mg/mL protein sample in 20 μL total volume PBS buffer were mixed with 2 μL of 10×SYPRO Orange dye. Dye intercalation into the hydrophobic protein core following protein unfolding was assayed using the C1000 Touch Thermal Cycler with CFX96 Deep Well Real-Time System (BioRad). Samples were heated from 20° C. to 95° C. with stepwise increments of 0.5° C. per minute and a 5 sec hold step for every point, followed by fluorescence reading. Tm was calculated by analyzing the derivatives of Relative florescence Units (RFU). […]

[4] = SYPRO Orange thermal shift (melting) assay; type: physicochemical; conditions: heating from 20° C. to 95° C.
Experimental: Thermal Shift Assay. Protein melting temperature (Tm) determination can be performed by monitoring protein unfolding using SYPRO Orange dye (Molecular Probes). In brief, 0.1 mg/mL protein sample in 20 μL total volume PBS buffer can be mixed with 2 μL of 10×SYPRO Orange dye. Dye intercalation into the hydrophobic protein core following protein unfolding was assayed using the C1000 Touch Thermal Cycler with CFX96 Deep Well Real-Time System (BioRad). Samples were heated from 20° C. to 95° C. with stepwise increments of 0.5° C. per minute and a 5 see hold step for every point, followed by fluorescence reading. Tm were calculated by analyzing the derivatives of Relative florescence Units (RFU).
as §1, with “Dye intercalation into the hydrophobic protein core following protein unfolding was assayed using the C1000 Touch Thermal Cycler with CFX96 Deep Well Real-Time System (BioRad).” left out

[5] = tested on: HeLa cells; assay: Cytosolic delivery of DyLight 488 labelled peptide with dfTAT (microscopy); type: cell-based; conditions: DyLight 488 conjugate, co-incubation with 5 μM dfTAT
Source text: Cytosolic Peptide Expression. Peptides, FLAG-tagged or not, can be cloned into a mammalian expression vector consisting of a CMV promoter, then a monocistronic mCherry-T2a-peptide sequence. These can be transfected, along with (where indicated) pFLAG-YAP1 and 8×GTIIC-luciferase (Addgene plasmid #34615) into 293T cells. 24 hrs post-transfection, cells can be either harvested for luminescence (ONE-Glo, Promega) or Western blot (anti-FLAG M2, Sigma). Protein Transfection with dfTAT Reagent. Solution was diluted to 50 μM in PBS for a 10× working stock, for a final concentration of 5 μM in culture wells. Peptides as disclosed herein can be fluoresceinated with DyLight 488 NHS-ester (ThermoFisher), with final dye:peptide labeling ratios between 0.8 and 1.4 as assessed by A280 and A488 on a Nanodrop spectrometer (Thermo Scientific). For confirmation of peptide cell penetration, 293T and HeLa cells can be plated in a 96-well plate in DMEM with 10% FBS, 1× penicillin/streptomycin (Pen/Strep) and grown overnight to ˜50% confluence. […]
For example, SEQ ID NO: 9 was co-administered with dfTAT, a small dimeric peptide that facilitates endosomal escape of cargoes up to 150 kDa without noticeable effects on viability or gene expression profiles. […] All P-values were determined by two-tailed T-test.

[6] = tested on: trypsin or chymotrypsin; assay: SDPR surface display protease resistance test (anti-6×His staining); conditions: up to 40 μg/ml trypsin or chymotrypsin, 20 minutes

| Sequence | Kd [1] [µM] | resistance to reduction by HPLC ([2]; 10 mM GSH) | secondary structure signature (CD spectra) before and after incubation at 95° C [3] | melting temperature [4] | further results |
| --- | --- | --- | --- | --- | --- |
| GSPDEYIERAKECCKKGDIQCCLRYFEESGDPNVMLICAFCP [SEQ ID NO: 5] | 0.28 | – | – | – | – |
| GSPDEYIERAKECCKKGDIQCCLRYFEESGDPNVMLICLACP [SEQ ID NO: 7] | 23 | – | – | – | – |
| GSPDEYIERAKECCKKGDIQCCLRYFEESGDPNVMLICLFCP [SEQ ID NO: 1] | – | resistant to GSH reducing conditions | – | – | – |
| GSPDEYIERAKECCKKQDIQCCLRIFDESGDPNVMLICLFCW [SEQ ID NO: 10] | – | – | identical | no melting temperature could be determined | – |
| GSPDEYIERAKECCKKQDIQCCLRIFDESKDPNVMLICLFCP [SEQ ID NO: 11] | – | – | identical | no melting temperature could be determined | – |
| GSPDEYIERAKECCKKQDIQCCLRIFDESKDPNVMLICLFCW [SEQ ID NO: 9] | – | resistant to GSH reducing conditions | identical | no melting temperature could be determined | resistance to reduction by HPLC ([2]; 10 mM DTT): partially resistant to DTT reduction; accumulation of peptide in cells [5]: accumulation of SEQ ID NO: 9 in cells in a disperse pattern; protease resistance (anti-6×His staining after protease treatment) [6]: partially resistant to cleavage by proteases |
